Antibody variant affinities, Ab-14 light chain, assay B

The measurements come from Li et al. 2023 (doi:10.1038/s41467-023-39022-2) through the FLAb antibody collection.

Antigen: PDVDLGDISGINAS, a 14-residue peptide of the SARS-CoV-2 spike HR2 region.

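The parent was found by panning a naive human phage display library on the peptide. The variants were designed computationally from a first round of random CDR variants and then made and measured. Group labels follow the data file (En: ensemble of fine-tuned language models; GP: Gaussian process model; HC: hill climbing; Gen: genetic algorithm; Gibbs: Gibbs sampling; a sequence that several methods proposed may carry one label only). In AlphaSeq, yeast of one mating type display the scFv and yeast of the other type display the target. After mating in shaken culture at 30 °C for 16 h, diploids were selected and their barcode pairs sequenced. The ratio of observed to expected reads was calibrated, replicate by replicate, on BCL2-family standards whose Kd was known from biolayer interferometry. The assay was run in six technical replicates.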

The variants keep the heavy chain, the linker and the frameworks of Ab-14 (scFv order VH, three GGGGS repeats, VL).
VH: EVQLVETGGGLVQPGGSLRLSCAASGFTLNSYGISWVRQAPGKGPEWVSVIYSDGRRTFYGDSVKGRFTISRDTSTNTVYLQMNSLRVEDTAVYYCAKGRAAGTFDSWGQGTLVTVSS
VL: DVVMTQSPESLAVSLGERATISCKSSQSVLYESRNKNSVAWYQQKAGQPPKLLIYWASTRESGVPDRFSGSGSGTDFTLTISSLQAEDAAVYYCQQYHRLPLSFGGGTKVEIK

The parent's light chain CDRs are KSSQSVLYESRNKNSVA, WASTRES, QQYHRLPLS; each variant's own CDRs replace them letter for letter. Variants here have more than six changes. Scale: log10 of Kd in nM, estimated from mating counts; low values are strong binders. Averages over replicates are reported, and they cover detected replicates only. An entry "nd" has no value in the source: the pair was not observed among the diploids in any replicate. This suggests poor binding but is not conclusive.

The variant KLSQSHNYLSRVMNSVA, DNSTRES, QQYFRLPLS [En_HC] gave 0.48 (6 of 6 replicates; controls 1 of 18).
The variant TISQSAQMESHNKNSVA, DLNLRGS, QQYDRLPLS [En_HC] gave 1.58 (6 of 6 replicates; controls 0 of 18).
The variant KLSTSSLYESRMANNVA, AASTREE, QQYHRLPLS [GP_Gibbs] gave 0.49 (6 of 6 replicates; controls 0 of 18).
The variant KSFQSELEEQRNDNSVA, SASTRLS, QQYHRLPLS [GP_Gibbs] gave 0.10 (6 of 6 replicates; controls 2 of 18).
The variant KLSQSVRMESFVQDNVA, ENSTREA, QDYHRLPLS [En_HC] gave nd (0 of 6 replicates; controls 0 of 18).
The variant AVDFSWWYESRNKNSVA, NASTREQ, QQYHRLPLS [GP_Gibbs] gave -0.17 (6 of 6 replicates; controls 0 of 18).
The variant KLQGSELGESRNKNSVA, SADTRES, QQYHRLPLS [GP_Gibbs] gave -0.59 (6 of 6 replicates; controls 0 of 18).
The variant KISCSSLYDDANINSVA, NASTRLS, QQYHRLPLS [GP_Gibbs] gave -0.11 (6 of 6 replicates; controls 1 of 18).
The variant KSQQSWEYESRNSNNVA, MGSQREV, QQYHRLPLS [GP_Gibbs] gave 0.42 (6 of 6 replicates; controls 0 of 18).
The variant KVEQLHDYESRNKNAVA, NGSTRES, QQYHRLPLS [GP_Gibbs] gave 0.27 (6 of 6 replicates; controls 3 of 18).
The variant KLYQSMGYLSRNKASIA, DMSRREN, QQYHRLPLS [En_HC] gave 0.36 (6 of 6 replicates; controls 2 of 18).
The variant KVSEFMRGLMMRKDSIA, DNETRSN, QQYDRLPLS [En_Gen] gave 2.12 (5 of 6 replicates; controls 0 of 18).
The variant HISYSMAHLSKNKNSVA, NQQTRES, QQYHHLPLS [En_HC] gave 1.18 (6 of 6 replicates; controls 2 of 18).
The variant KMSQSWWYESRMKWSVA, NASERES, QQYHRLPLS [GP_Gibbs] gave 1.39 (6 of 6 replicates; controls 0 of 18).
The variant KWMQSVMQESRNKNSVA, HASTRMQ, QQYHRLPLS [GP_Gibbs] gave 1.89 (5 of 6 replicates; controls 0 of 18).
The variant TLSQMSGVEAVKHNNVA, ENSTREE, QQYDRLPLA [En_Gen] gave 1.44 (6 of 6 replicates; controls 0 of 18).
The variant HISPSFMVESRLKNSVA, QTETRVQ, QQYDRLPLS [En_HC] gave 0.48 (6 of 6 replicates; controls 2 of 18).
The variant RIDDYPNMLGKNKESIA, EAAVTLT, QQYARLPLS [En_Gibbs] gave 0.82 (6 of 6 replicates; controls 1 of 18).
The variant QLEFERGQEWKQGAAIA, GNTESLH, QQYAMLPLS [En_Gibbs] gave 1.64 (5 of 6 replicates; controls 1 of 18).
The variant MISQVMNTLTRHGNNVA, DLETRED, QQYFRLPLS [En_Gen] gave 1.14 (6 of 6 replicates; controls 0 of 18).
The variant QMTHPEESWQNNQRSIA, NASASLD, QQYAQLPLM [En_Gibbs] gave 0.95 (6 of 6 replicates; controls 0 of 18).
The variant KVSWSVELQSRNWGQVA, SASTREL, QQYHRLPLS [GP_Gibbs] gave 0.61 (6 of 6 replicates; controls 0 of 18).
The variant HISNMQAYGYSATNSVA, DNTNKLN, QQYIRLPLT [En_Gibbs] gave 0.04 (6 of 6 replicates; controls 1 of 18).
The variant KLDPSDQGESRNKNAVA, QASTREI, QQYHRLPLS [GP_Gibbs] gave 0.20 (6 of 6 replicates; controls 2 of 18).
The variant KVMQSMWYESRNKNSVA, HASEREQ, QQYHRLPLQ [GP_Gibbs] gave 0.16 (6 of 6 replicates; controls 2 of 18).
The variant NIRGRVNGKGTTTKNIA, DAEFRAG, QQYSRLPLS [En_Gibbs] gave -0.04 (6 of 6 replicates; controls 2 of 18).
The variant MIAAGLRGVGRNKNSVA, NAQTRES, QHYHRLPLS [En_HC] gave 2.87 (6 of 6 replicates; controls 0 of 18).
The variant TISQMTSLFSQSINNVA, EVSMREK, QQYDRLPLM [En_Gen] gave 1.88 (6 of 6 replicates; controls 0 of 18).
The variant TISMHTSLFSQTINNVA, EVSTRES, QQYDRLPLM [En_Gen] gave 0.45 (6 of 6 replicates; controls 0 of 18).
The variant HITYGMQVAGRHSKSIA, QAETREK, QQYDRLPLS [En_Gen] gave 0.53 (6 of 6 replicates; controls 2 of 18).
The variant KMSQSMWYESRASNSVA, NASNRLS, QQYHRLPLS [GP_Gibbs] gave -0.14 (6 of 6 replicates; controls 1 of 18).
The variant KYSGSELGEQRNKNSVA, NASTREE, QQYHRLPLS [GP_Gibbs] gave -0.26 (6 of 6 replicates; controls 0 of 18).
The variant QFEFHEEEGYQYSNNIA, NGEQRFS, QQYVKLPLV [En_Gibbs] gave 0.65 (6 of 6 replicates; controls 0 of 18).
The variant KLSASQLYESRASNAVA, NASTRMM, QQYHRLPLS [GP_Gibbs] gave 0.38 (6 of 6 replicates; controls 0 of 18).
The variant TIGQSTLMESSNRNNVA, QMSTREK, QQYDRLPLS [En_HC] gave 0.62 (6 of 6 replicates; controls 1 of 18).
The variant KISQMVKVGATHANSIA, EMVTRAK, QQYHRLPLA [En_Gen] gave 2.36 (2 of 6 replicates; controls 0 of 18).
The variant KLSQLFYKESKNKNNVA, EMTTRGQ, QQYDRLPLS [En_HC] gave 0.16 (6 of 6 replicates; controls 1 of 18).
The variant TISQSVLMTGLNRNSVA, QASERIE, QQYDRLPLS [En_HC] gave 0.78 (6 of 6 replicates; controls 2 of 18).

The authors' rule: three or more of the six replicates give a measured affinity, fewer mean a poor binder. The range of this assay differs from that of the first round, and the authors advise against merging the two. Nonspecific signal, from three strains lacking the peptide, appeared in 4% of pairings of all light chain designs, centred on 2.64 (5% of these signals below 1.59); values are not corrected for it. For each scFv, signals with the empty controls are counted beside the result. Of ten entries with the parent sequence, four were seen in most replicates (averages 0.34 to 2.37), three in one and three in none, so single entries are noisy.